Assay results published in US20260382581A1, “COMPOSITIONS COMPRISING CYTISINE IN THE TREATMENT AND/OR PREVENTION OF ADDICTION IN SUBJECTS IN NEED THEREOF” (published 2026).

Experiment: claude: adverse events, incl. those leading to dose reduction, interruption or discontinuation
Settings: Safety Set, N = 106
Source text: Cytisinicline was well tolerated and no serious adverse events were reported. Similar rates of adverse events (AE's) were observed between treatment arms (54.7% in the placebo arm vs. 50.9% in the cytisinicline arm). The most commonly reported (>5%) AEs in the placebo arm were anxiety, headache, upper respiratory tract infection, nausea, and Covid-19 infection. In the cytisinicline arm, >5% AEs reported were sleep disturbances, anxiety, headache, fatigue, and upper respiratory tract infection.
A second measurement consisted of biochemically verified continuous vaping abstinence at any time during treatment, with vaping abstinence at Week 3-6 or Week 6-9 for of cytisinicline treatment vs placebo. 7-day point prevalence rates were compared for vaping abstinence (Week 2 to 12) (FIG. 62). An additional measurement included reduction in daily vaping as measured by cotinine, where cytisinicline treatment vs placebo for a reduction in nicotine vaping using weekly quantitative cotinine levels from Week 2 to Week 12. Safety was assessed by adverse effects and serious adverse effects, considering number, severity, and attribution to study drug. Early beneficial effect was observed and continued throughout the 12 weeks with some weeks at or close to statistical significance (weeks 4, 6, 7, 8, 9, and 12) (FIGS. 63-65). Cotinine values less than 1 were converted to 1 due to extreme asymmetry (FIG. 65)
Adverse Events are coded using MedDRA version 23.1.

**Q.** For `O=c1cccc2n1C[C@@H]1CNC[C@H]2C1`, which “TEAE: Concussion, subjects” value is on record?
**A.** Its value is 0 n.

**Q.** What about the “TEAE: Constipation, percent” value of the same compound?
**A.** The value was “(1.9) %”.

**Q.** What about the “TEAE: Constipation, subjects” value of the same compound?
**A.** The value was 2 n.

**Q.** And the “TEAE: Decreased appetite, percent” value?
**A.** The value was “(0.9) %”.

**Q.** And the “TEAE: Decreased appetite, subjects” value?
**A.** The value was 1 n.

**Q.** And the “TEAE: Depressed mood, subjects” value?
**A.** Its value is 0 n.

**Q.** What about the “TEAE: Depression, subjects” value of the same compound?
**A.** Its value is 0 n.

**Q.** What about the “TEAE: Dermatitis contact, percent” value of the same compound?
**A.** Its value is “(0.9) %”.

**Q.** What about the “TEAE: Dermatitis contact, subjects” value of the same compound?
**A.** The value was 1 n.

**Q.** What about the “TEAE: Disturbance in attention, percent” value of the same compound?
**A.** Its value is “(0.9) %”.

**Q.** What about the “TEAE: Disturbance in attention, subjects” value of the same compound?
**A.** Its value is 1 n.

**Q.** And the “TEAE: Dizziness, percent” value?
**A.** Its value is “(2.8) %”.

**Q.** What about the “TEAE: Dizziness, subjects” value of the same compound?
**A.** Its value is 3 n.

**Q.** What about the “TEAE: Dry mouth, percent” value of the same compound?
**A.** The value was “(1.9) %”.

**Q.** And the “TEAE: Dry mouth, subjects” value?
**A.** Its value is 2 n.

**Q.** What about the “TEAE: Dyspepsia, percent” value of the same compound?
**A.** Its value is “(0.9) %”.

**Q.** What about the “TEAE: Dyspepsia, subjects” value of the same compound?
**A.** The value was 1 n.

**Q.** And the “TEAE: Ear infection, subjects” value?
**A.** The value was 0 n.

**Q.** And the “TEAE: Eye pruritus, percent” value?
**A.** Its value is “(0.9) %”.

**Q.** What about the “TEAE: Eye pruritus, subjects” value of the same compound?
**A.** The value was 1 n.

**Q.** And the “TEAE: Fatigue, percent” value?
**A.** Its value is “(5.7) %”.

**Q.** What about the “TEAE: Fatigue, subjects” value of the same compound?
**A.** Its value is 6 n.

**Q.** And the “TEAE: Female sterilisation, percent” value?
**A.** Its value is “(0.9) %”.

**Q.** What about the “TEAE: Female sterilisation, subjects” value of the same compound?
**A.** Its value is 1 n.

**Q.** What about the “TEAE: Gastroenteritis norovirus, subjects” value of the same compound?
**A.** Its value is 0 n.

**Q.** And the “TEAE: Gastroenteritis viral, subjects” value?
**A.** Its value is 0 n.

**Q.** And the “TEAE: Gastroenteritis, percent” value?
**A.** The value was “(1.9) %”.

**Q.** And the “TEAE: Gastroenteritis, subjects” value?
**A.** Its value is 2 n.

**Q.** And the “TEAE: Gout, percent” value?
**A.** Its value is “(0.9) %”.

**Q.** And the “TEAE: Gout, subjects” value?
**A.** Its value is 1 n.

**Q.** And the “TEAE: Headache, percent” value?
**A.** Its value is “(6.6) %”.

**Q.** What about the “TEAE: Headache, subjects” value of the same compound?
**A.** Its value is 7 n.

**Q.** And the “TEAE: Hot flush, percent” value?
**A.** Its value is “(0.9) %”.

**Q.** And the “TEAE: Hot flush, subjects” value?
**A.** The value was 1 n.

**Q.** What about the “TEAE: Hyperhidrosis, subjects” value of the same compound?
**A.** The value was 0 n.

**Q.** What about the “TEAE: Increased appetite, percent” value of the same compound?
**A.** Its value is “(0.9) %”.

**Q.** What about the “TEAE: Increased appetite, subjects” value of the same compound?
**A.** Its value is 1 n.

**Q.** What about the “TEAE: Influenza, percent” value of the same compound?
**A.** The value was “(1.9) %”.

**Q.** And the “TEAE: Influenza, subjects” value?
**A.** Its value is 2 n.

**Q.** And the “TEAE: Insomnia, percent” value?
**A.** Its value is “(10.4) %”.

**Q.** And the “TEAE: Insomnia, subjects” value?
**A.** The value was 11 n.

**Q.** And the “TEAE: Irritability, percent” value?
**A.** The value was “(2.8) %”.

**Q.** What about the “TEAE: Irritability, subjects” value of the same compound?
**A.** The value was 3 n.

**Q.** And the “TEAE: Menorrhagia, percent” value?
**A.** Its value is “(0.9) %”.

**Q.** And the “TEAE: Menorrhagia, subjects” value?
**A.** Its value is 1 n.

**Q.** What about the “TEAE: Migraine, percent” value of the same compound?
**A.** Its value is “(0.9) %”.

**Q.** And the “TEAE: Migraine, subjects” value?
**A.** The value was 1 n.

**Q.** What about the “TEAE: Musculoskeletal chest pain, percent” value of the same compound?
**A.** The value was “(0.9) %”.

**Q.** What about the “TEAE: Musculoskeletal chest pain, subjects” value of the same compound?
**A.** Its value is 1 n.

**Q.** And the “TEAE: Nasal congestion, subjects” value?
**A.** The value was 0 n.

**Q.** And the “TEAE: Nasopharyngitis, subjects” value?
**A.** Its value is 0 n.

**Q.** What about the “TEAE: Nausea, percent” value of the same compound?
**A.** Its value is “(4.7) %”.

**Q.** What about the “TEAE: Nausea, subjects” value of the same compound?
**A.** Its value is 5 n.

**Q.** What about the “TEAE: Neck pain, percent” value of the same compound?
**A.** Its value is “(1.9) %”.

**Q.** What about the “TEAE: Neck pain, subjects” value of the same compound?
**A.** The value was 2 n.

**Q.** What about the “TEAE: Oropharyngeal pain, percent” value of the same compound?
**A.** The value was “(1.9) %”.

**Q.** What about the “TEAE: Oropharyngeal pain, subjects” value of the same compound?
**A.** The value was 2 n.

**Q.** What about the “TEAE: Otitis media, subjects” value of the same compound?
**A.** Its value is 0 n.

**Q.** What about the “TEAE: Pain in jaw, subjects” value of the same compound?
**A.** The value was 0 n.

**Q.** And the “TEAE: Panic attack, percent” value?
**A.** The value was “(1.9) %”.

**Q.** What about the “TEAE: Panic attack, subjects” value of the same compound?
**A.** Its value is 2 n.

**Q.** And the “TEAE: Pelvic pain, percent” value?
**A.** Its value is “(0.9) %”.

**Q.** And the “TEAE: Pelvic pain, subjects” value?
**A.** Its value is 1 n.

**Q.** What about the “TEAE: Post viral fatigue syndrome, subjects” value of the same compound?
**A.** The value was 0 n.

**Q.** And the “TEAE: Pregnancy, subjects” value?
**A.** Its value is 0 n.

**Q.** What about the “TEAE: Procedural anxiety, percent” value of the same compound?
**A.** The value was “(0.9) %”.

**Q.** What about the “TEAE: Procedural anxiety, subjects” value of the same compound?
**A.** Its value is 1 n.

**Q.** And the “TEAE: Pyrexia, subjects” value?
**A.** The value was 0 n.

**Q.** And the “TEAE: Restless legs syndrome, percent” value?
**A.** The value was “(0.9) %”.

**Q.** And the “TEAE: Restless legs syndrome, subjects” value?
**A.** Its value is 1 n.

**Q.** What about the “TEAE: Sensitive skin, percent” value of the same compound?
**A.** Its value is “(0.9) %”.

**Q.** And the “TEAE: Sensitive skin, subjects” value?
**A.** Its value is 1 n.

**Q.** What about the “TEAE: Sinus congestion, percent” value of the same compound?
**A.** The value was “(0.9) %”.

**Q.** What about the “TEAE: Sinus congestion, subjects” value of the same compound?
**A.** Its value is 1 n.

**Q.** What about the “TEAE: Sinusitis, subjects” value of the same compound?
**A.** The value was 0 n.

**Q.** What about the “TEAE: Stress, percent” value of the same compound?
**A.** Its value is “(0.9) %”.

**Q.** What about the “TEAE: Stress, subjects” value of the same compound?
**A.** Its value is 1 n.

**Q.** What about the “TEAE: Thirst, percent” value of the same compound?
**A.** Its value is “(0.9) %”.

**Q.** And the “TEAE: Thirst, subjects” value?
**A.** Its value is 1 n.

**Q.** What about the “TEAE: Tooth extraction, subjects” value of the same compound?
**A.** The value was 0 n.

**Q.** What about the “TEAE: Trismus, subjects” value of the same compound?
**A.** Its value is 0 n.

**Q.** And the “TEAE: Upper respiratory tract infection, percent” value?
**A.** Its value is “(5.7) %”.

**Q.** What about the “TEAE: Upper respiratory tract infection, subjects” value of the same compound?
**A.** Its value is 6 n.

**Q.** And the “TEAE: Urinary tract infection, percent” value?
**A.** Its value is “(0.9) %”.

**Q.** What about the “TEAE: Urinary tract infection, subjects” value of the same compound?
**A.** Its value is 1 n.

**Q.** What about the “TEAE: Vasectomy, percent” value of the same compound?
**A.** The value was “(0.9) %”.

**Q.** And the “TEAE: Vasectomy, subjects” value?
**A.** The value was 1 n.

**Q.** And the “TEAE: Vomiting, percent” value?
**A.** The value was “(0.9) %”.

**Q.** And the “TEAE: Vomiting, subjects” value?
**A.** Its value is 1 n.

**Q.** And the “TEAE: Wisdom teeth removal, percent” value?
**A.** Its value is “(0.9) %”.

**Q.** What about the “TEAE: Wisdom teeth removal, subjects” value of the same compound?
**A.** Its value is 1 n.

**Q.** What about the “Mild TEAE, events” value (Severity) of the same compound?
**A.** Its value is 92 Events.

**Q.** And the “Mild TEAE, percent of subjects” value (Severity)?
**A.** The value was 47.2%.

**Q.** What about the “Mild TEAE, subjects” value (Severity) of the same compound?
**A.** The value was 50 n.

**Q.** What about the “Moderate TEAE, events” value (Severity) of the same compound?
**A.** Its value is 26 Events.

**Q.** What about the “Moderate TEAE, percent of subjects” value (Severity) of the same compound?
**A.** The value was 15.1%.

**Q.** What about the “Moderate TEAE, subjects” value (Severity) of the same compound?
**A.** The value was 16 n.

**Q.** And the “Severe TEAE, events” value (Severity)?
**A.** Its value is 1 Events.

**Q.** And the “Severe TEAE, percent of subjects” value (Severity)?
**A.** The value was 0.9%.

**Q.** What about the “Severe TEAE, subjects” value (Severity) of the same compound?
**A.** Its value is 1 n.

**Q.** What about the “At Least One TEAE, percent” value (by preferred term) of the same compound?
**A.** Its value is “(50.9) %”.

**Q.** And the “At Least One TEAE, subjects” value (by preferred term)?
**A.** The value was 54 n.

**Q.** What about the “At Least One TEAE, percent of subjects” value (overall summary) of the same compound?
**A.** The value was 50.9%.

**Q.** What about the “At Least One TEAE, subjects” value (overall summary) of the same compound?
**A.** The value was 54 n.

**Q.** What about the “TEAE, events” value (overall summary) of the same compound?
**A.** The value was 119 Events.
